Laboratory results as given in ChEMBL document CHEMBL5634157, “Design and synthesis of certain 7-Aryl-2-Methyl-3-Substituted Pyrazolo{1,5-a}Pyrimidines as multikinase inhibitors” (Eur J Med Chem, 2023).
Calls of active or inactive are those of the source. The calls are words filed in the database; no cut-off is given here.

Sequences of proteins named here, by UniProt entry; tags and fusion partners are left off.
UniProt P68400, whole entry, looked up: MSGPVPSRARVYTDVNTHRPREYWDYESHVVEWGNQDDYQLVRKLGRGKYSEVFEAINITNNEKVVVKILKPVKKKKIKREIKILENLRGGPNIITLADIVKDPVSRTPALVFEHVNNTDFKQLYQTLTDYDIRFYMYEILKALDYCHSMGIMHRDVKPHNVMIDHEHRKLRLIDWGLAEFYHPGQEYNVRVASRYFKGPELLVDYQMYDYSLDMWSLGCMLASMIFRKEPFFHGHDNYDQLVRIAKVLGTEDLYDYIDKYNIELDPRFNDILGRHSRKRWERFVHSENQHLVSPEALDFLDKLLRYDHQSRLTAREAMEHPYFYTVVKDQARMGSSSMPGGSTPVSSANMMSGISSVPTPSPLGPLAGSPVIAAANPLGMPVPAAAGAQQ

Biological target: Casein kinase II subunit alpha (Homo sapiens, UniProt P68400)
Experiment: Inhibition of CK2alpha in human HCT-116 cells by Western blotting analysis
Format: cell-based

## COc1ccc(-c2ccnc3c(-c4noc(C)n4)c(C)nn23)cc1
  inhibition: Active
